Tests used:
[1] = Spectrophotometric test (UV-Vis optical absorbance) of conjugates; conditions: 650-950 nm; same total amount of conjugated Cy7.5 dye
[2] = PA tubing phantom experiment; conditions: maximum ratio, at 710 nm

Substance	maximum optical absorbance as % of the maximum optical absorbance of I (779 nm) [1]	ratio of PA intensity to I in 700-750 nm range [2]
G4(Cy7.5)6(SA-KEU)9(Bdiol)53 [Conjugate IV]	32.3%	
G4(Cy7.5)s(SA-KEU)12(Bdiol)52 [Conjugate V]	55.5%	up to 203.66%
G4(NH2)13(Cy7.5)6(Bdiol)45 [Conjugate VI]	26.3%	
G4(NH2)20(Cy7.5)2(SA-KEU)10(Bdiol)32 [Conjugate II]	24.4%	
G4(NH2)(Cy7.5)4(SA-KEU)9(Bdiol)30 [Conjugate III]	14.8%	

— patent publication US20220401592A1, “LOW MOLECULAR WEIGHT AND POLYAMIDOAMINE (PAMAM) DENDRIMER BASED PSMA-SPECIFIC DUAL CONTRAST AGENTS FOR OPTICAL AND PHOTOACOUSTIC IMAGING AND THERANOSTIC AGENTS FOR TREATING PROSTATE CANCER” (priority 2021, published 2022)
